{"sequences": {"note": "Amino acid sequences for entries named in this document (tags omitted).", "UniProt P63279, whole entry": "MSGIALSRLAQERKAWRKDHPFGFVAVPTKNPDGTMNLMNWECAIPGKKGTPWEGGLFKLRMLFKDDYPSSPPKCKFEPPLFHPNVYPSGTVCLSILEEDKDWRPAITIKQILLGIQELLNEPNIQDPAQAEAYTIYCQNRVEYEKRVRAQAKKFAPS"}, "source": "PubChem BioAssay AID2006", "about": "(Sanford-Burnham Center for Chemical Genomics, 2009)", "note": "This is a selection; strong and weak results do not stand in their true shares. Some of these compounds have results that are not shown, active ones among them. Activity calls are given as the source filed them. Rule as the data show it: active = inhibition above about 50% (passing the limit was not always enough); inconclusive = no clear call, values can overlap the other calls.", "data": [{"target": "SUMO-conjugating enzyme UBC9 (Homo sapiens) (UniProt P63279)", "experiment": "blockers of SAE1/SAE2–UBC9 SUMO transfer – biochemical, HTRF, uHTS, primary screen (AID 2006)", "conditions": "HTRF SUMOylation assay, SAE1/SAE2 + UBC9, in vitro; at 35 µM; stronger effect = higher value", "values": [{"smiles": "COc1cc(C(=O)NCC2(N(C)C)CCCCC2)c([N+](=O)[O-])cc1OC", "inhibition": "inactive: 2.5%"}, {"smiles": "CN(C)C1(CNC(=O)c2ccc(Br)cc2)CCCCC1", "inhibition": "inactive: 20.1%"}, {"smiles": "O=C(NCC1(N2CCCCC2)CCCCC1)c1cccc(Cl)c1", "inhibition": "inactive: -4%"}, {"smiles": "COc1ccc(Cl)cc1C(=O)NCC1(N(C)C)CCCCC1", "inhibition": "inactive: 6.9%"}, {"smiles": "COc1cccc(C(=O)NCC2(N3CCCCC3)CCCCC2)c1", "inhibition": "inactive: 15.9%"}, {"smiles": "O=C(OC1CN2CCC1CC2)C(CO)(c1ccccc1)c1ccccc1", "note": "(centres undefined)", "inhibition": "inactive: -8%"}, {"smiles": "CC(C)Oc1ccc(C(=O)NCC2(N(C)C)CCCCC2)cc1", "inhibition": "inactive: 21.7%"}, {"smiles": "CN(C)c1cccc(C(=O)NCC2(N(C)C)CCCCC2)c1", "inhibition": "inactive: 17.1%"}, {"smiles": "COc1ccc(Br)c(C(=O)NCC2(N3CCCCC3)CCCCC2)c1", "inhibition": "inactive: -1.7%"}, {"smiles": "CN1[C@@H]2CC[C@H]1CC(OC(=O)C(O)(c1ccccc1)c1ccccc1)C2", "note": "(some centres undefined)", "inhibition": "inactive: -21%"}, {"smiles": "O=C(NCC1(N2CCCCC2)CCCCC1)c1cc([N+](=O)[O-])ccc1Cl", "inhibition": "inactive: -2.2%"}, {"smiles": "Cc1ccc(C(=O)NCC2(N3CCCCC3)CCCCC2)cc1", "inhibition": "inactive: 0.3%"}, {"smiles": "COc1cc(SC)ccc1C(=O)NCC1(N(C)C)CCCCC1", "inhibition": "inactive: 19.4%"}, {"smiles": "CCN(CC)CC(C)C(C)OC(=O)C(O)(c1ccccc1)c1ccccc1", "note": "(centres undefined)", "inhibition": "inactive: 16.7%"}, {"smiles": "CC(C)N1C(=O)CC2(CCN(CCOC(=O)C(O)(c3ccccc3)c3ccccc3)CC2)C1=O", "inhibition": "inactive: -19.5%"}, {"smiles": "CN(C)c1ccc(C(=O)NCC2(N(C)C)CCCCC2)cc1", "inhibition": "inactive: 8.5%"}, {"smiles": "CN(C)C1CCCC1OC(=O)C(O)(c1ccccc1)c1ccccc1", "note": "(centres undefined)", "inhibition": "inactive: -5.8%"}, {"smiles": "Cc1ccccc1C(=O)NCC1(N2CCCCC2)CCCCC1", "inhibition": "inactive: 12%"}, {"smiles": "COc1ccc(C(=O)NCC2(N(C)C)CCCCC2)cc1", "inhibition": "inactive: 18.5%"}, {"smiles": "O=C(NCC1(N2CCCCC2)CCCCC1)c1cccc(Br)c1", "inhibition": "inactive: 1.1%"}, {"smiles": "CCN1CCCC(OC(=O)C2(O)c3ccccc3C=Cc3ccccc32)C1", "note": "(centres undefined)", "inhibition": "inactive: 28.8%"}, {"smiles": "Cc1cc(C(=O)NCC2(N3CCCCC3)CCCCC2)ccc1[N+](=O)[O-]", "inhibition": "inactive: 12.3%"}, {"smiles": "O=C(NCC1(N2CCCCC2)CCCCC1)c1cc(F)c(F)cc1Cl", "inhibition": "inactive: -7.8%"}, {"smiles": "C=CCN1CCN(CCOC(=O)C(O)(c2ccccc2)c2ccccc2)CC1", "inhibition": "inactive: 3.5%"}]}]}
